According to US7825156B2, “Method of treating bipolar depression with a benzamide derivative” (Copharms, priority 2007, dated 2010):

Test system: bipolar depression
Experiment: Case reports: treatment of bipolar depression in patients with bipolar I or II disorder
Conditions: amisulpride given in such a dose (about 50 to about 300 mg/day)

CCN1CCCC1CNC(=O)c1cc(S(=O)(=O)CC)c(N)cc1OC (stereo not shown) [amisulpride, 4-amino-N-[(1-ethylpyrrolidin-2-yl)methyl]-5-(ethylsulfonyl)-2-methoxybenzamide]
deterioration of any other aspect of bipolar disorder, such as treatment-emergent mania: No deterioration
